Laboratory results as given in PubChem BioAssay AID504891 (National Center for Advancing Translational Sciences (NCATS), 2011).
The list shows a part of the results, in another mix than the full data. Inconclusive results are not listed. Calls of active or inactive are those of the source. The call rests on the fitted dose curve; in most records, active means well fitted inhibition curve with a large enough effect in the polarisation, with a control signal flat (not every such curve was filed as active); inconclusive means small, poorly fitted or top-dose-only effect, or effect the other way, or a change in a side signal; inactive means no such curve, though single readings can be large or run the other way; the % refers to the polarisation.

The chains behind the UniProt entries cited, without tags or fusion partners.
UniProt Q13526, whole entry: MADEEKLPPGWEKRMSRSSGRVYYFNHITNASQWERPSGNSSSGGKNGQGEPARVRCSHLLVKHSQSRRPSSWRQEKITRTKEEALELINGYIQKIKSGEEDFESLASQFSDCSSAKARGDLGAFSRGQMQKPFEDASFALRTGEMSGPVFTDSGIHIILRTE

What follows are molecules tested against Peptidyl-prolyl cis-trans isomerase NIMA-interacting 1 (Homo sapiens) (UniProt Q13526) (assay: qHTS Assay to Find Inhibitors of Pin1). Conditions: Pin1 FP peptide displacement, HiFluor488, 10 min; at 115 µM (top of the series).
On the % scale 0 is the no-effect control and ±100 the full control effect.

Row | SMILES | activity, negative = inhibition
1 | CC1=NCCc2c1[nH]c1ccccc21.O=[N+]([O-])c1cc([N+](=O)[O-])c(O)c([N+](=O)[O-])c1 | inactive: 20.1%
2 | CCOC(=O)c1ccc(NP(C)(=O)Oc2cc(C)cc(C)c2)cc1 (stereo unspecified) | inactive: 0.859%
3 | Cc1cc(C)cc(OP(C)(=O)Nc2ccc(C)cc2C)c1 (stereo unspecified) | inactive: -4.07%
4 | COc1ccccc1OP(C)(=O)Nc1cccc(Br)c1 (stereo unspecified) | inactive: 0.386%
5 | Cc1ccc(C)c(NP(C)(=O)Oc2ccccc2)c1 (stereo unspecified) | inactive: 0.88%
6 | Cc1cc(C)cc(OP(C)(=O)Nc2ccccn2)c1 (stereo unspecified) | inactive: -2.21%
7 | CP(=O)(Nc1cccc(Br)c1)Oc1ccccc1 (stereo unspecified) | inactive: -0.864%
8 | O=[N+]([O-])c1cc([N+](=O)[O-])c(-n2nnc3ccccc32)c([N+](=O)[O-])c1 | inactive: -2.63%
9 | Cc1nc2ccc3ccccc3c2s1.O=[N+]([O-])c1cc([N+](=O)[O-])c(O)c([N+](=O)[O-])c1 | inactive: -7.85%
10 | O=[N+]([O-])c1cc([N+](=O)[O-])c(-c2cnn(-c3ccccc3)c2)c([N+](=O)[O-])c1 | inactive: -0.607%
11 | O=[N+]([O-])c1cc([N+](=O)[O-])c(Nc2nnnn2CCO)c([N+](=O)[O-])c1 | inactive: 1.33%
12 | CCCOc1ccc(NP(C)(=O)Oc2ccc(Cl)cc2)cc1 (stereo unspecified) | inactive: -0.654%
13 | CP(=O)(Nc1ccc(SC(F)(F)F)cc1)Oc1ccccc1 (stereo unspecified) | inactive: 1.36%
14 | CN1CCCCC1COC(=O)C1(O)c2ccccc2CCc2ccccc21 (stereo unspecified) | inactive: -1.09%
15 | COc1ccccc1OP(C)(=O)Nc1c(C)cccc1C (stereo unspecified) | inactive: 0.619%
16 | CP(=O)(Nc1ccccc1Br)Oc1ccccc1 (stereo unspecified) | inactive: -3.96%
17 | COc1ccccc1OP(C)(=O)Nc1ccccc1 (stereo unspecified) | inactive: -1.78%
18 | CP(=S)(Nn1cnnc1)Oc1ccccc1 (stereo unspecified) | inactive: -3.33%
19 | CP(=O)(NC(=O)Nc1ccccc1)Oc1ccccc1 (stereo unspecified) | inactive: 7.72%
20 | CCc1ccc(OP(C)(=O)N2CCN(c3ccc([N+](=O)[O-])cc3)CC2)cc1 (stereo unspecified) | inactive: 2.84%
21 | Cc1cc(C)cc(OP(C)(=O)Nc2ccc(SC(F)(F)F)cc2)c1 (stereo unspecified) | inactive: -0.862%

Row | SMILES | activity, negative = inhibition
22 | CP(=O)(Nc1ccc(SC(F)(F)F)cc1)Oc1ccc(Cl)cc1 (stereo unspecified) | inactive: -6.75%
23 | Cc1cccc(C)c1OP(C)(=O)Nc1ccc(SC(F)(F)F)cc1 (stereo unspecified) | inactive: 3.05%
24 | CP(=O)(Oc1ccccc1)OC(c1ccccc1)C(F)(F)F (stereo unspecified) | inactive: -11.9%
25 | CP(=O)(Nc1ccccn1)Oc1ccc(Cl)cc1 (stereo unspecified) | inactive: 0.414%
26 | O=[N+]([O-])c1cc([N+](=O)[O-])c(O)c([N+](=O)[O-])c1.c1ccc(Oc2ccncc2)cc1 | inactive: -3.39%
27 | CCOC(=O)c1ccc(NP(C)(=O)Oc2ccc(OC)cc2)cc1 (stereo unspecified) | inactive: 4.15%
28 | CCOP(C)(=S)SCC(=O)NC(C)C(=O)O (stereo unspecified) | inactive: -10.5%
29 | CCN(CC)CCCOC(=O)C(O)(c1ccccc1)c1ccccc1 | inactive: 3.05%
30 | O=[N+]([O-])c1ccc2c(c1)C=Nc1ccccc1O2 | inactive: 11.2%
31 | Cc1cccc(C)c1OP(C)(N)=O (stereo unspecified) | inactive: -1.83%
32 | O=[N+]([O-])c1cc([N+](=O)[O-])c(Nc2cccnc2)c([N+](=O)[O-])c1 | inactive: -10.3%
33 | Cc1cc(C)cc(OP(C)(N)=O)c1 (stereo unspecified) | inactive: -9.49%
34 | COc1ccccc1OP(C)(=O)Nc1cc(Cl)ccc1C (stereo unspecified) | inactive: -11.3%
35 | COc1ccc(OP(C)(=O)Nc2cccc(F)c2)cc1 (stereo unspecified) | inactive: -2.83%
36 | COc1ccccc1OP(C)(=O)Nc1ccc(C)cc1 (stereo unspecified) | inactive: 1.19%
37 | Cc1ccc(NP(C)(=O)Oc2ccccc2)c(C)c1 (stereo unspecified) | inactive: -3.74%
38 | CCOC(=O)c1ccc(NP(C)(=O)Oc2ccccc2)cc1 (stereo unspecified) | inactive: 2.4%
39 | COc1ccccc1OP(C)(=O)Nc1ccc(C)c(C)c1 (stereo unspecified) | inactive: -0.324%
40 | COc1ccc(OP(C)(=O)Nc2ccccc2Br)cc1 (stereo unspecified) | inactive: 1.66%
41 | CP(=O)(Nc1ccc(Cl)cc1Cl)Oc1ccccc1 (stereo unspecified) | inactive: -0.345%
42 | CCCCCCCCCCCCCCCC1C[N+](C)(C)CCOP(C)(=O)O1 (stereo unspecified) | inactive: 16.8%

Row | SMILES | activity, negative = inhibition
43 | CP(=O)(OCCOc1ccccc1)OCCOc1ccccc1 | inactive: -5.73%
44 | CN(C)CCOC(=O)C(O)(c1ccccc1)C1CCCC1 (stereo unspecified) | inactive: -8.93%
45 | COc1ccccc1OP(C)(=O)Nc1ccc(Br)cc1 (stereo unspecified) | inactive: -7.12%
46 | CP(=O)(Nc1ccccn1)Oc1ccccc1 (stereo unspecified) | inactive: -10.1%
47 | COc1ccccc1OP(C)(=O)Nc1ccc(C)cc1C (stereo unspecified) | inactive: 5.05%
48 | CCc1ccc(OP(C)(=O)O)cc1 | inactive: -0.209%
49 | Cc1c(NP(C)(=O)Oc2ccc(C(C)C)cc2)c(=O)n(-c2ccccc2)n1C (stereo unspecified) | inactive: -3.73%
50 | O=[N+]([O-])c1cc([N+](=O)[O-])c(Nc2ccccn2)c([N+](=O)[O-])c1 | inactive: 0.161%
51 | COc1ccccc1OP(C)(=O)Nc1c(C)n(C)n(-c2ccccc2)c1=O (stereo unspecified) | inactive: 4.3%
52 | O=C(OCCCN1CCCC1)C(O)(c1ccccc1)C1CCCCC1 (stereo unspecified) | inactive: 2.25%
53 | CP(=O)(Oc1ccccc1)N1CCOC1=O (stereo unspecified) | inactive: -6.03%
54 | CCc1ccc(OP(C)(=O)Nc2cccnc2)cc1 (stereo unspecified) | inactive: -10.2%
55 | CCN(CC)CC(O)COC(=O)C(O)(c1ccccc1)C1CCCCC1 (stereo unspecified) | inactive: -0.561%
56 | COc1ccc(OP(C)(=O)Nc2ccc(Br)cc2)cc1 (stereo unspecified) | inactive: 7.17%
57 | CN(C)C(=O)c1c([N+](=O)[O-])cc([N+](=O)[O-])cc1[N+](=O)[O-] | inactive: -2.12%
58 | COc1ccccc1OP(C)(=O)Nc1ccccc1Br (stereo unspecified) | inactive: -5.32%
59 | CC(C)(C)c1ccc(OP(C)(=O)O)cc1 | inactive: -5.96%
60 | CP(=O)(Nc1ccc(Cl)cc1)Oc1ccc(F)cc1 (stereo unspecified) | inactive: -2.67%
61 | CCOC(=O)c1ccc(NP(C)(=O)Oc2ccc(Cl)cc2)cc1 (stereo unspecified) | inactive: -1.71%
62 | CP(=O)(OC12CC3CC(CC(C3)C1)C2)OC12CC3CC(CC(C3)C1)C2 | inactive: 1.1%
63 | Nc1ccc2c(ccc3cccnc32)n1.O=[N+]([O-])c1cc([N+](=O)[O-])c(O)c([N+](=O)[O-])c1 | inactive: 3.98%

Row | SMILES | activity, negative = inhibition
64 | CN(C)CCOC(=O)C(O)(c1ccccc1)C1CCCCC1 (stereo unspecified) | inactive: 0.604%
65 | COc1ccc(NP(C)(=O)Oc2ccccc2OC)cc1 (stereo unspecified) | inactive: 4.63%
66 | COc1ccc(OP(C)(=O)Nc2cccc(Br)c2)cc1 (stereo unspecified) | inactive: 0.401%
67 | Cc1c(C(c2ccc3c(c2)OCO3)c2c(C)n(C)n(-c3ccccc3)c2=O)c(=O)n(-c2ccccc2)n1C.O=[N+]([O-])c1cc([N+](=O)[O-])c(O)c([N+](=O)[O-])c1 | inactive: -4.99%
68 | O=[N+]([O-])c1ccc(OP2(=O)COCCO2)cc1 (stereo unspecified) | inactive: 2.86%
69 | Cc1cc(-c2cccc3ccccc23)c(C)cn1.O=[N+]([O-])c1cc([N+](=O)[O-])c(O)c([N+](=O)[O-])c1 | inactive: -1.94%
70 | CCOP(C)(=S)SCC(=O)NC(C)(CC)C(=O)O (stereo unspecified) | inactive: 1.22%
71 | CP(=O)(Nc1ccc(SC(F)(F)F)cc1)Oc1ccc(F)cc1 (stereo unspecified) | inactive: -11%
72 | Cc1ccccc1NP(C)(=O)Nc1ccccc1C | inactive: -9.43%
73 | CP(=O)(Nc1ccc2c(c1)OCCO2)Oc1ccccc1 (stereo unspecified) | inactive: 0.241%
74 | CP(=O)(Nc1ccccc1F)Oc1ccccc1 (stereo unspecified) | inactive: 1.15%
75 | O=C(OCCN1CCN(CCOCc2ccccc2)CC1)C(O)(c1ccccc1)c1ccccc1 | inactive: -1.1%
76 | CCOC(=O)c1ccc(NP(C)(=O)Oc2ccc(F)cc2)cc1 (stereo unspecified) | inactive: 3.24%
77 | COc1ccc(OP(C)(=O)Nc2ccc(SC(F)(F)F)cc2)cc1 (stereo unspecified) | inactive: -5.58%
78 | CP(=O)(Nc1ccccc1)Oc1ccc(F)cc1 (stereo unspecified) | inactive: -8.19%
79 | CCCCCOc1ccc(NP(C)(=O)Oc2ccc(Cl)cc2Cl)cc1 (stereo unspecified) | inactive: 2.91%
80 | Cc1c([N+](=O)[O-])cc([N+](=O)[O-])c(Br)c1[N+](=O)[O-] | inactive: 17.4%
81 | CCN(CC)CCCOC(=O)C(O)(c1ccccc1)C1CCCCC1 (stereo unspecified) | inactive: 5.27%
